Experiments:
PKM2 = PKM2 (Homo sapiens (Human), UniProt P14618); assay: Recombinant PKM2 enzyme activity in the presence of FBP (LDH-coupled NADH consumption); settings: screening concentration estimated at 50 μM
Procedure: (§1) Recombinant PKM1 and PKM2 were expressed in E. coli and purified using an Ni-NTA column according to standard protocols. PKM2 ([…]) was mixed with the following components: 0.6 mM ADP, 0.5 mM phosphoenolpyruvate, 200 μM NADH, 1-4 units of lactate dehydrogenase, 50 μM FBP, 1 mM DTT, 0.02% Brij 35, 5% glycerol, and the test molecule with a final DMSO concentration of 5%. A control reaction lacked the test molecule. The test molecules used in this example were selected from a library containing over 100,000 compounds.
Primary screening was performed using PKM2 in the presence of FBP. […] Activity was measured by monitoring the concentration of NADH. Pyruvate, produced by the enzymatic activity of pyruvate kinase, is converted into lactate by lactate dehydrogenase, which requires the consumption of NADH (NADH→NAD^+). Thus, the activity of PKM2 was indirectly measured by monitoring the consumption of NADH through fluorescence assays. Additionally, the activity of the PKM2 enzyme was directly monitored by measuring the production of ATP, as ATP is produced when phosphoenolpyruvate is converted to pyruvate by PKM2.
For in vitro studies, recombinant pyruvate kinase was incubated with the compound indicated (Table 2) and the activity of the enzyme assessed, as described in Example 4. To determine the IC50, enzyme activity was determined at various concentrations of inhibitor. […]

Chains of the proteins cited; added tags and fusions are not shown. A line that says so, or that is headed by a name, gives the form on record, which may keep a tag or linker.
UniProt P14618, whole entry: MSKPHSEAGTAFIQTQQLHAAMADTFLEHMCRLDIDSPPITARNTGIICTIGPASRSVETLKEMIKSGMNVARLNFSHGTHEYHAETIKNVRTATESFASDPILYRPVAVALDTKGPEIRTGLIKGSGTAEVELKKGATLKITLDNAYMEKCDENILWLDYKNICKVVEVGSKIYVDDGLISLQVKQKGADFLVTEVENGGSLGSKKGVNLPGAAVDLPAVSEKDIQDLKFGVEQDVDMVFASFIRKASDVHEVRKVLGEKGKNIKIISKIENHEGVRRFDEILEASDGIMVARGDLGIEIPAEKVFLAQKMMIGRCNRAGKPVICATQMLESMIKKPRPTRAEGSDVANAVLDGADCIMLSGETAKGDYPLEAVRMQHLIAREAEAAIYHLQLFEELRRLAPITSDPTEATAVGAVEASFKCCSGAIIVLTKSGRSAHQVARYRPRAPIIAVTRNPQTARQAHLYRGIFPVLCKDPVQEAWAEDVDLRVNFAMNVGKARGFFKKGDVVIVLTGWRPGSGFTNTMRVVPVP
UniProt P14618, with tags, fused parts or gaps limits assumed: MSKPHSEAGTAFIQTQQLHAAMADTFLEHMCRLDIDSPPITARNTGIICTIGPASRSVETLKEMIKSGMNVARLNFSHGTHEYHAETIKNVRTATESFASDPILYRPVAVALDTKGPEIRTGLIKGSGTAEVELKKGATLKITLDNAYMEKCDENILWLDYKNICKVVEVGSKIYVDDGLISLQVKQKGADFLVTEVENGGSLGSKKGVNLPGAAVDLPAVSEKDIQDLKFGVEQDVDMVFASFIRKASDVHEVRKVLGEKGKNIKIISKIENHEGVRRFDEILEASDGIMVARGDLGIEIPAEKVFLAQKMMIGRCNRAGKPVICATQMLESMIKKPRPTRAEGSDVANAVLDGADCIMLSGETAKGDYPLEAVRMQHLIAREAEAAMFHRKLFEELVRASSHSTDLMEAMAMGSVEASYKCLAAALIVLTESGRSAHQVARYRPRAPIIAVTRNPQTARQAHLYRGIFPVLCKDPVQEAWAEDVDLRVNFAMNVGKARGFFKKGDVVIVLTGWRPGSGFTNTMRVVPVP

PKM1 = PKM1 (Homo sapiens (Human), UniProt P14618); assay: Recombinant PKM1 enzyme activity (same screening method); settings: screening concentration estimated at 50 μM
Procedure: as §1
This same screening method was then used to retest candidate molecules for the inhibition of PKM1 to determine which candidate compounds are active against PKM2, but not PKM1.
(§2) For in vitro studies, recombinant pyruvate kinase was incubated with the compound indicated (Table 2) and the activity of the enzyme assessed, as described in Example 4. To determine the IC50, enzyme activity was determined at various concentrations of inhibitor. The percentages shown in Table 2 reflect the inhibition of enzyme activity relative to the absence of compound when the enzyme is incubated with 50 μM of the compound indicated. For in vivo studies, human lung cancer cell lines were incubated with increasing concentrations of the compound indicated and the concentration required to kill >90% of the cells is reported.

[1] = system: H1299 and A549 human lung cancer cells; assay: Killing of human lung cancer cell lines by increasing concentrations of compound; settings: read-out: IC50 in vivo, concentration required to kill >90% of the cells
Procedure: as §2
Human lung cancer cells were exposed to increasing concentrations of candidate compounds A2 and D1. The toxicity of the compounds was measured by determining the percentage of surviving cells. Cells were mock-treated with DMSO as a control. […] depicts the toxicity of compounds A2 (FIG. 8a) and D1 (FIG. 8b) in H1299 cells compared to mock treatment with DMSO.

FL5.12 cells = assay: Toxicity in FL5.12 cells with and without growth factor (IL-3); settings: twenty hours of treatment, presence and absence of IL-3
Procedure: Mouse pre-lymphocyte cells (FL5.12 cells) were treated with candidate compounds A2 (FIG. 9a) and D1 (FIG. 9b) for twenty hours in the presence and absence of growth factor (IL-3).

| Compound | PKM2 inhibition of enzyme activity relative to the absence of compound (PKM2) [%] | PKM1 inhibition of enzyme activity relative to the absence of compound (PKM1) [%] | IC50 [1] [µM] | Toxicity in FL5.12 cells, effect of growth factor withdrawal (FL5.12 cells) |
| --- | --- | --- | --- | --- |
| Cc1ccc(C)n1-c1ccc(Cl)c(C(=O)O)c1 | 50 | 0 | > 100 |  |
| CSc1ccc(C(=O)O)s1 |  |  | 90 |  |
| Cc1ccc(C)n1-c1ccc(O)c(C(=O)O)c1 | 50 | 15 | 250 | Growth factor withdrawal increases the toxicity |
